{"source": "patent US10300065B2", "about": "“Method of treating or prevention of atherothrombotic events in patients with history of myocardial infarction” (ASTRAZENECA AB, priority 2015, dated 2019)", "key": {"[1]": {"tested_on": "patients with a history of myocardial infarction", "experiment": "PEGASUS-TIMI 54 analysis by time from P2Y12 inhibitor withdrawal to randomization", "conditions": "for hazard ratio for cardiovascular death, myocardial infarction, or stroke: 60 mg bid arm; for CVD, MI, or Stroke: Hazard Ratio: doses pooled vs. placebo, N = 17,885 patients with no history of MI or PCI within one year of randomization"}, "[2]": {"tested_on": "patients with a history of myocardial infarction"}, "[3]": {"tested_on": "patients with a history of myocardial infarction", "experiment": "PEGASUS-TIMI 54 trial, efficacy endpoints (intention-to-treat / full analysis set)", "type": "in vivo, human", "conditions": "for Relative risk reduction (RRR) for the composite endpoint: 60 mg bid vs placebo", "from_the_text": "The PEGASUS-TIMI 54 trial (also referred to as the PEGASUS trial or PEGASUS study herein) was a randomized, double-blind, placebo-controlled multinational clinical trial that enrolled over 21,000 patients at 1,161 sites in 31 countries. The protocol was approved by the relevant ethics committees at all participating sites. In the U.S., the PEGASUS trial was assigned a ClinicalTrials.gov number of NCT01225562. Results from the PEGASUS trial were discussed in Bonaca, Marc P., et al. “Long-term use of ticagrelor in patients with prior myocardial infarction.” New England Journal of Medicine 372.19 (2015): 1791-1800.\nPatients could be randomized regardless of their prior adenosine diphosphate (ADP) receptor blocker therapy or a lapse in therapy.\nEligible patients were randomized in a 1:1:1 ratio to receive ticagrelor 90 mg orally twice daily, ticagrelor 60 mg orally twice daily, or placebo. Randomization was performed using a central computerized telephone or web based system, and allocation was double-blind.\nAll patients enrolled in the PEGASUS trial were instructed to take open label aspirin at a dose of 75 to 150 mg daily. Because the study population was stable, no loading dose of ticagrelor was administered.\nA total of 1360 primary endpoint events would be required to provide approximately 90% power to detect a 20% relative risk reduction with the 90 mg twice daily dose and approximately 83% power to detect a 19% relative risk reduction with the 60 mg twice daily dose when each dose was compared individually with placebo. The primary efficacy analysis was conducted on an intention-to-treat basis, with each of the two doses individually compared to placebo, as a time to event analysis from randomization to the first occurrence of any element of the primary composite endpoint: cardiovascular death, myocardial infarction, or stroke. […] An exploratory analysis of both doses combined compared with placebo was prespecified."}, "[4]": {"conditions": "cited from earlier work"}}, "note": "Like-named read-outs stand apart in the source and are kept apart here."}
{"smiles": "CCCSc1nc(N[C@@H]2C[C@H]2c2ccc(F)c(F)c2)c2nnn([C@@H]3C[C@H](OCCO)[C@@H](O)[C@H]3O)c2n1", "note": "[Ticagrelor, (1S,2S,3R,5S)-3-[7-{[(1R,2S)-2-(3,4-difluorophenyl)cyclopropyl]amino}-5-(propylthio)-3H-[1,2,3]-triazolo[4,5-d]pyrimidin-3-yl]-5-(2-hydroxyethoxy)cyclopentane-1,2-diol]", "values": [{"measurement": "hazard ratio for cardiovascular death, myocardial infarction, or stroke", "setting": "[1]; 31 days to one year after P2Y12 therapy withdrawal", "result": 0.82}, {"measurement": "hazard ratio for cardiovascular death, myocardial infarction, or stroke", "setting": "[1]; more than one year after P2Y12 therapy withdrawal", "result": 1.06}, {"measurement": "hazard ratio for cardiovascular death, myocardial infarction, or stroke", "setting": "[1]; within 30 days of P2Y12 therapy withdrawal", "result": 0.75}, {"measurement": "CVD, MI, or Stroke: Hazard Ratio", "setting": "[1]; P2Y12 inhibitor withdrawal 0-30 day", "result": "0.73 (95% CI 0.60-0.87)"}, {"measurement": "CVD, MI, or Stroke: Hazard Ratio", "setting": "[1]; P2Y12 inhibitor withdrawal >1 year", "result": "1.01 (95% CI 0.80-1.28)"}, {"measurement": "CVD, MI, or Stroke: Hazard Ratio", "setting": "[1]; P2Y12 inhibitor withdrawal >30 to 1 year", "result": "0.84 (95% CI 0.70-1.02)"}, {"measurement": "ratio of fatal bleeding events over TIMI major bleeding events", "setting": "[2]; 60 mg arm", "result": "11/115"}, {"measurement": "ratio of fatal bleeding events over TIMI major bleeding events", "setting": "[2]; 90 mg arm", "result": "6/127"}, {"measurement": "Composite of CV Death/MI/Stroke, landmark: Hazard Ratio", "setting": "[3]; 60 mg bd vs placebo, 1-360 days", "result": 0.83}, {"measurement": "Composite of CV Death/MI/Stroke, landmark: Hazard Ratio", "setting": "[3]; 60 mg bd vs placebo, 361 days or more", "result": 0.84}, {"measurement": "Relative risk reduction (RRR) for the composite endpoint", "setting": "[3]; from 1 to 360 days", "result": 17, "unit": "%"}, {"measurement": "Relative risk reduction (RRR) for the composite endpoint", "setting": "[3]; from 361 days and onwards", "result": 16, "unit": "%"}, {"measurement": "Composite of CV Death/MI/Stroke, landmark: Hazard Ratio", "setting": "[3]; 90 mg bd vs placebo, 1-360 days", "result": 0.87}, {"measurement": "Composite of CV Death/MI/Stroke, landmark: Hazard Ratio", "setting": "[3]; 90 mg bd vs placebo, 361 days or more", "result": 0.84}, {"measurement": "effect of a high-fat meal on peak plasma concentration (cmax)", "setting": "[4]", "result": "no effect"}]}
